Molecular target: GABA-A receptor; alpha-1/beta-2/gamma-2 (Homo sapiens) (UniProt P14867+P47870+P18507)
Assay: Activation of human alpha1beta2gamma2L GABA A receptor expressed in Xenopus laevis oocytes assessed as increase in GABA-induced current response at 65 uM by two-electrode voltage clamp assay relative to untreated control
Assay type: cell-based
Settings: Oocyte

Amino acid sequences for entries named in this document (tags omitted). A change or cut given only in a name is not applied to a line headed by its entry.
UniProt P14867: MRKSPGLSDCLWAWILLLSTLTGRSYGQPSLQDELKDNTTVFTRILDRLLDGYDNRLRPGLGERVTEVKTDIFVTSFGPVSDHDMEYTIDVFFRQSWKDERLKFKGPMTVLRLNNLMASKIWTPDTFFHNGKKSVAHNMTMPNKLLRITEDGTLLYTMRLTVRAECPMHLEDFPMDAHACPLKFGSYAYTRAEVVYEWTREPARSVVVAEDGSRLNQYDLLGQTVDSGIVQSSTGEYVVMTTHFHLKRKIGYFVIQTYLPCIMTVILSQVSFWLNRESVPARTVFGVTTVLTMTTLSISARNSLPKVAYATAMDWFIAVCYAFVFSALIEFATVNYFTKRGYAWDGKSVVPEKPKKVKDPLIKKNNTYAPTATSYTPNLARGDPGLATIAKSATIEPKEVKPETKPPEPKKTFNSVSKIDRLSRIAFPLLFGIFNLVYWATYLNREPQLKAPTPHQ
UniProt P47870: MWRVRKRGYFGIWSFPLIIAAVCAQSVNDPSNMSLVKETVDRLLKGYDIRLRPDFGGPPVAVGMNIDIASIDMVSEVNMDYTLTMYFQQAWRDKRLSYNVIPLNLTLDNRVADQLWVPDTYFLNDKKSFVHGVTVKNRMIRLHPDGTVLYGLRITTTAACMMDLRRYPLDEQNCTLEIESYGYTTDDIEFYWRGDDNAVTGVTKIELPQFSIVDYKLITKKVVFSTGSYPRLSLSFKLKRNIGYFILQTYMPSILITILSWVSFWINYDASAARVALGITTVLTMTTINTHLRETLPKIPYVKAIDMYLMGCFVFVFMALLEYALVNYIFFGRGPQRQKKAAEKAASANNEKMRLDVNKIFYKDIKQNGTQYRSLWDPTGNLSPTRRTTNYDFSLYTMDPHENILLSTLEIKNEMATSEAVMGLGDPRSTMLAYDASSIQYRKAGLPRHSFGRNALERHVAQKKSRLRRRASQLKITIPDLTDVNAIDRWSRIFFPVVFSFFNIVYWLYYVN
UniProt P18507: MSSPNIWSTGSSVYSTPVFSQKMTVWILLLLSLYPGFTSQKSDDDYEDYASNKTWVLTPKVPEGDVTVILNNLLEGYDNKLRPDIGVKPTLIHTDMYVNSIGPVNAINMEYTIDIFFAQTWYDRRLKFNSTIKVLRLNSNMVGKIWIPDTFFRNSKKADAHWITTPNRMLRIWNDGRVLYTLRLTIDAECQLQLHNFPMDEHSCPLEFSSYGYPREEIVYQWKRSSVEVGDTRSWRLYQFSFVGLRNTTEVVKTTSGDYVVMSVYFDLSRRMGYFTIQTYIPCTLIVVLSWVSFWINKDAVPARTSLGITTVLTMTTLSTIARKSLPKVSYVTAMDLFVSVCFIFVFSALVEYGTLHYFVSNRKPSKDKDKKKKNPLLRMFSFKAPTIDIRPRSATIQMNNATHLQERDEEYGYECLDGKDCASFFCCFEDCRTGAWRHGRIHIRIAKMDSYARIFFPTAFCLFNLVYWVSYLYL

CCCC(C)C1(CC)C(=O)NC(=O)NC1=O (stereo unspecified) [PENTOBARBITAL]
fold change (FC): 4

From ChEMBL document CHEMBL2163302, “Allyl m-trifluoromethyldiazirine mephobarbital: an unusually potent enantioselective and photoreactive barbiturate general anesthetic” (J Med Chem, 2012)
